Data from PubChem BioAssay (NCI).
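Following 48 hours of exposure in 96-well plates, responses at five concentrations were used to interpolate endpoints linearly. GI50 marks 50% less growth. TGI denotes the concentration required for complete inhibition of growth.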

Columns and labels:
Test in all cases: inhibition of tumour cell growth, NCI panel, 48 h
SR leukemia = system: SR leukemia
DMS 273 small cell lung = system: DMS 273 small cell lung
SF-539 CNS = system: SF-539 CNS
DLD-1 colon = system: DLD-1 colon
XF 498 CNS = system: XF 498 CNS
HCT-15 colon = system: HCT-15 colon
OVCAR-5 ovarian = system: OVCAR-5 ovarian
HL-60(TB) leukemia = system: HL-60(TB) leukemia
HCC-2998 colon = system: HCC-2998 colon
UACC-257 melanoma = system: UACC-257 melanoma
TK-10 renal = system: TK-10 renal
SNB-78 CNS = system: SNB-78 CNS
MOLT-4 leukemia = system: MOLT-4 leukemia
SK-MEL-5 melanoma = system: SK-MEL-5 melanoma
HCT-116 colon = system: HCT-116 colon
LOX IMVI melanoma = system: LOX IMVI melanoma
OVCAR-8 ovarian = system: OVCAR-8 ovarian
HT29 colon = system: HT29 colon
A549 NSCLC = system: A549 NSCLC
KM12 colon = system: KM12 colon
DMS 114 small cell lung = system: DMS 114 small cell lung
U251 CNS = system: U251 CNS
ACHN renal = system: ACHN renal
KM20L2 colon = system: KM20L2 colon
OVCAR-4 ovarian = system: OVCAR-4 ovarian
NCI-H522 lung = system: NCI-H522 lung
HOP-92 NSCLC = system: HOP-92 NSCLC
COLO 205 colon = system: COLO 205 colon
SN12C renal = system: SN12C renal

`CCCCCCP(=O)(OC)OC` showed a TGI (SR leukemia) greater than 100 µM, a GI50 (DMS 273 small cell lung) greater than 100 µM and a TGI (DMS 273 small cell lung) greater than 100 µM. It also gave a GI50 (SF-539 CNS) greater than 100 µM, a TGI (SF-539 CNS) greater than 100 µM and a GI50 (DLD-1 colon) greater than 100 µM. The TGI (DLD-1 colon) was greater than 100 µM, the GI50 (XF 498 CNS) was greater than 100 µM and the TGI (XF 498 CNS) was greater than 100 µM. For the same compound, the GI50 (HCT-15 colon) was greater than 100 µM, the TGI (HCT-15 colon) was greater than 100 µM and the GI50 (OVCAR-5 ovarian) was greater than 100 µM. For the same compound, the TGI (OVCAR-5 ovarian) was greater than 100 µM, the GI50 (HL-60(TB) leukemia) was greater than 100 µM and the TGI (HL-60(TB) leukemia) was greater than 100 µM. For the same compound, the GI50 (HCC-2998 colon) was greater than 100 µM, the TGI (HCC-2998 colon) was greater than 100 µM and the GI50 (UACC-257 melanoma) was greater than 100 µM. The TGI (UACC-257 melanoma) was greater than 100 µM, the GI50 (TK-10 renal) was greater than 100 µM and the TGI (TK-10 renal) was greater than 100 µM. The GI50 (SNB-78 CNS) was greater than 100 µM, the TGI (SNB-78 CNS) was greater than 100 µM and the GI50 (MOLT-4 leukemia) was greater than 100 µM. It also gave a TGI (MOLT-4 leukemia) greater than 100 µM, a GI50 (SK-MEL-5 melanoma) greater than 100 µM and a TGI (SK-MEL-5 melanoma) greater than 100 µM. For the same compound, the GI50 (HCT-116 colon) was greater than 100 µM, the TGI (HCT-116 colon) was greater than 100 µM and the GI50 (LOX IMVI melanoma) was greater than 100 µM. For the same compound, the TGI (LOX IMVI melanoma) was greater than 100 µM, the GI50 (OVCAR-8 ovarian) was greater than 100 µM and the TGI (OVCAR-8 ovarian) was greater than 100 µM. The GI50 (HT29 colon) was greater than 100 µM, the TGI (HT29 colon) was greater than 100 µM and the GI50 (A549 NSCLC) was greater than 100 µM. For the same compound, the TGI (A549 NSCLC) was greater than 100 µM, the GI50 (KM12 colon) was greater than 100 µM and the TGI (KM12 colon) was greater than 100 µM. For the same compound, the GI50 (DMS 114 small cell lung) was greater than 100 µM, the TGI (DMS 114 small cell lung) was greater than 100 µM and the GI50 (U251 CNS) was greater than 100 µM. The TGI (U251 CNS) was greater than 100 µM, the GI50 (ACHN renal) was greater than 100 µM and the TGI (ACHN renal) was greater than 100 µM. For the same compound, the GI50 (KM20L2 colon) was greater than 100 µM, the TGI (KM20L2 colon) was greater than 100 µM and the GI50 (OVCAR-4 ovarian) was greater than 100 µM. For the same compound, the TGI (OVCAR-4 ovarian) was greater than 100 µM, the GI50 (NCI-H522 lung) was greater than 100 µM and the TGI (NCI-H522 lung) was greater than 100 µM. The GI50 (HOP-92 NSCLC) was greater than 100 µM, the TGI (HOP-92 NSCLC) was greater than 100 µM and the GI50 (COLO 205 colon) was greater than 100 µM. The TGI (COLO 205 colon) was greater than 100 µM, the GI50 (SN12C renal) was greater than 100 µM and the TGI (SN12C renal) was greater than 100 µM.
